The structures appear in SMILES notation. The list shows a part of the results, in another mix than the full data. Some salts and complexes are drawn in separate pieces, as the source files them; their charges need not balance. Activity calls are given as the source filed them. Rule as the data show it: active = hERG blockade below about -20% or above about 20%; inactive = in between.

Chains of the proteins cited; added tags and fusions are not shown.
UniProt Q12809, whole entry: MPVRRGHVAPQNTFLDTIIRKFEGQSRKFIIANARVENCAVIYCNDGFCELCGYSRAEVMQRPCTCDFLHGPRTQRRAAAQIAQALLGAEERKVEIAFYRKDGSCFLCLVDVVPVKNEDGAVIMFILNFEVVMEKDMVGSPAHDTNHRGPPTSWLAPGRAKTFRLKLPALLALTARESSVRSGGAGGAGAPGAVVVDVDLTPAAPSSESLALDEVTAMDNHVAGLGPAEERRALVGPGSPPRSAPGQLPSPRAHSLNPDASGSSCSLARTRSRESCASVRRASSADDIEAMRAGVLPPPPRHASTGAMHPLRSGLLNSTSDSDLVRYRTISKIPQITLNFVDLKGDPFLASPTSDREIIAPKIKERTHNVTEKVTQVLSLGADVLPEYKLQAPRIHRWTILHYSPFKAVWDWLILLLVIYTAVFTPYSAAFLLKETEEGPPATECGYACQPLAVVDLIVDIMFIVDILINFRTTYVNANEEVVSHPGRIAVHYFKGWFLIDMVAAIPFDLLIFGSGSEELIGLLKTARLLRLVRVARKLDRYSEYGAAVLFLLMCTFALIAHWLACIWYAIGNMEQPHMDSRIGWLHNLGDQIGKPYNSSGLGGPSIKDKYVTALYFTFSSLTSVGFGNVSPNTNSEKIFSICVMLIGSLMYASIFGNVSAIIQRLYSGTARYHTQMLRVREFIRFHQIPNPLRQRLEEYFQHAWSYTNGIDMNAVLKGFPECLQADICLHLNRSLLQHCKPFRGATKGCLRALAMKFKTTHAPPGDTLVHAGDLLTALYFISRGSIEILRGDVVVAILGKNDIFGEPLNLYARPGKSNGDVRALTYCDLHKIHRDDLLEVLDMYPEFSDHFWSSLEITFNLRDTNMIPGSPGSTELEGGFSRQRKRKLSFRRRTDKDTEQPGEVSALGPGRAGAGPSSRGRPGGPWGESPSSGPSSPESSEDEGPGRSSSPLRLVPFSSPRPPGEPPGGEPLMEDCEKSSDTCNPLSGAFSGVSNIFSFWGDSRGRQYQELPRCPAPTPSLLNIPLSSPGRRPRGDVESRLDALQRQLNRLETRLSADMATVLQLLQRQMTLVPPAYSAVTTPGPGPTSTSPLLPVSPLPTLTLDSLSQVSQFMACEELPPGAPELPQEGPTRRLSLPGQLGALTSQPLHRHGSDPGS

The experiment concerns the target Voltage-gated inwardly rectifying potassium channel KCNH2 (Homo sapiens) (UniProt Q12809). Nature of the experiment: KCNH2 potassium channel function modulators, cell-based (AID 376).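 Also: 0% = buffer alone and 100% = reference blocker.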 The following applies: hERG-expressing cells, channel activity single-concentration screen; concentration not given here. (In general: The hERG channel carries a current that helps repolarise heart muscle cells.)
As to `NNC(NN)NN.n1nc(-c2nn[nH]n2)n[nH]1`, the hERG blockade was inactive: -11.6%.

Consider `N1=C(c2nnc(-c3nn[nH]n3)nn2)NNN1`, for which the hERG blockade is inactive: 9.65%.

Regarding `[Au+].[Au+].c1ccc([PH+](c2ccccc2)c2ccccc2)cc1.c1ccc([PH+](c2ccccc2)c2ccccc2)cc1.n1n[n-]c(-c2nnn[n-]2)n1`, the hERG blockade was inactive: 0.855%.
